Consider 2 compounds from ChEMBL document CHEMBL1201862, “PubChem BioAssay data set” (2004).

Protein sequences, listed by entry. Tags and fused reporters are not part of them.
UniProt Q16539, whole entry: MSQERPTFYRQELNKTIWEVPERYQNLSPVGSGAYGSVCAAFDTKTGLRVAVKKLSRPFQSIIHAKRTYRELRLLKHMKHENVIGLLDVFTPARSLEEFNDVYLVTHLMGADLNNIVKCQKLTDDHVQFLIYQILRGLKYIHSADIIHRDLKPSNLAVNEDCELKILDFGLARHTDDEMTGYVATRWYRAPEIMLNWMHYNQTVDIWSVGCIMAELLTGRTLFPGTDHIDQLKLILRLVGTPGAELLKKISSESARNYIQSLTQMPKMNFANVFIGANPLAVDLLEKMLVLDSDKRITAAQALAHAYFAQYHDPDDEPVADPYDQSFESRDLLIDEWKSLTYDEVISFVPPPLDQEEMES

Calls of active or inactive are those of the source. How the calls were made is not given here.

One test concerns the target T1, Phosphomannomutase 2 (Homo sapiens, UniProt O15305).
T1 sequence (O15305 whole entry): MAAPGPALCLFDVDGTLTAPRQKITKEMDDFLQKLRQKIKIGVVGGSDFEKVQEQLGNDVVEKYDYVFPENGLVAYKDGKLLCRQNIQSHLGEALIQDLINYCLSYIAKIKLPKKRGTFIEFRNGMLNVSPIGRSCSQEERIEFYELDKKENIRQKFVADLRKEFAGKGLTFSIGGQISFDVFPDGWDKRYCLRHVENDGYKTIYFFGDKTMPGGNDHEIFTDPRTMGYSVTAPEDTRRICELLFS
The test is described as follows: Counter screen SAR assay for PMM2 inhibitors via a fluorescence intensity assay. [Related pubchem assays (depositor defined):AID1545, AID1574].

Test [1] deals with Mitogen-activated protein kinase 14 (Homo sapiens, UniProt Q16539). It is filed as functional.
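Wherever Ki is given: part of a kinome-wide panel, MAPK14 entry.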

On to `O=c1c2ccccc2sn1-c1ccccc1`, for which, on Phosphomannomutase 2, the half-inhibitory concentration (IC50) was active: 36.9 µM. Take `NC(=O)c1ccc(-c2nc(-c3ccc4c(c3)OCO4)c(-c3ccccn3)[nH]2)cc1` [SB-431542]: the Ki in test [1] is inactive: > 3.98 µM.
